Measured values taken from ChEMBL document CHEMBL4184231, “Selective inhibition of monoamine oxidase A by hispidol” (Bioorg Med Chem Lett, 2018).

By UniProt entry, the sequences of proteins in these tests, tags left out.
UniProt P27338, whole entry: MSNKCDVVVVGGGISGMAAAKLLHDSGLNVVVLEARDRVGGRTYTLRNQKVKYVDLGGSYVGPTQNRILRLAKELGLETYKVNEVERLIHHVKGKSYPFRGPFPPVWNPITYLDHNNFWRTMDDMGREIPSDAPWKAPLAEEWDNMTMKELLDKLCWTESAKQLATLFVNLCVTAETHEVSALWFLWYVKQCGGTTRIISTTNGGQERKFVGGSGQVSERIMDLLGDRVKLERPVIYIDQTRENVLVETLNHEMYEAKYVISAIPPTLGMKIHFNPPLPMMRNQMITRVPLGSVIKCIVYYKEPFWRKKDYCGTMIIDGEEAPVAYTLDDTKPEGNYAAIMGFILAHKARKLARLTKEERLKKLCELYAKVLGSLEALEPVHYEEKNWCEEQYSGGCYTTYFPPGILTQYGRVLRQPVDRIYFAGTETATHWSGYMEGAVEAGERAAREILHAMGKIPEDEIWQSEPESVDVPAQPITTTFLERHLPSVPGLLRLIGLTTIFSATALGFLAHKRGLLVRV

Target: Amine oxidase [flavin-containing] B (Homo sapiens, UniProt P27338)
Experiment: Irreversible inhibition of human recombinant MAOB assessed as residual enzyme activity at 2 time IC50 pre-incubated for 30 mins followed by 0.06 mM benzylamine substrate addition

C#CCN(C)Cc1ccccc1 [PARGYLINE]
Activity: 24%
